Patent US20180303853A1, “COMPOSITIONS AND METHODS FOR TREATING BACTERIAL INFECTIONS USING CEFTAROLINE” (priority 2017, published 2018)

Tests used:
[1] = tested on: community-acquired pneumonia (CAP); assay: Example 5 Phase 3 study, ceftaroline vs ceftriaxone with adjunctive clarithromycin in CAP, efficacy; type: in vivo, human
[2] = tested on: community-acquired pneumonia (CAP); assay: Example 4 Phase 3 study, ceftaroline vs ceftriaxone in CAP, efficacy; type: in vivo, human; conditions: Example 4, CE population

CO/N=C(\C(=O)N[C@@H]1C(=O)N2C(C(=O)O)=C(CSc3nc(=O)c(=O)[nH]n3C)CS[C@H]12)c1csc(N)n1 [Ceftriaxone, ceftriaxone, reference compound]
Per-subject Clinical Cure Rate at the EOT Visit ([1]; Example 5, CE population): 188 (80.3) %
Per-subject Clinical Cure Rate at the EOT Visit ([1]; Example 5, MITTE population): 242 (80.7) %
Per-subject Clinical Cure Rate at the EOT Visit [2]: 172 (80.0) %
